## Yeast mating assay 1: variants of the scFv Ab-14

All variants were tested on one target, the spike HR2 peptide PDVDLGDISGINAS (SARS-CoV-2).

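The parent was found by panning a naive human phage display library on the peptide. AAYL50 was designed without a model: most single CDR substitutions and a random sample of double and triple ones. AlphaSeq pools MATa yeast showing the antibodies with MATalpha yeast showing the peptide. Binding brings cells together so that they mate, and sequencing counts the barcode pairs among the diploids. A regression on co-assayed BCL2-family reference pairs converts the normalised counts of each replicate to an apparent Kd. Each pool was mated in three replicate cultures.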

Each scFv is VH, a 15-residue (Gly4Ser)3 linker, VL, as in the parent Ab-14, and differs from it in the CDRs of the light chain only.
VH: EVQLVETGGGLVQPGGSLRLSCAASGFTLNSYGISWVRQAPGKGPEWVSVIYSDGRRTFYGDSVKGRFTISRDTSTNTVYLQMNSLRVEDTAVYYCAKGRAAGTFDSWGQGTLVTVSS
VL: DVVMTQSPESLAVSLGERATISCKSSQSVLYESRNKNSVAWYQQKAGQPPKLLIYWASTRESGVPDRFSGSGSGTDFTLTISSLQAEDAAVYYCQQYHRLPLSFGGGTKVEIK

Positions count from residue 1 of the parent VL; S26R puts R in place of S.
Scale: log10 of Kd in nM, estimated from mating counts; low values are strong binders.
The mean shown is taken over the replicates in which the pair was detected.
Where no diploid with the target was found in that replicate, the entry reads "ND": below detection, most likely a poor binder, though not proof of it.
Parent in this assay: reference entry 0.65, copy in this library 1.68.
As a blank, each scFv also met three strains without target: over library AAYL50, 18% of these pairings were detected, typically at 4.19 and seldom below 2.99.

changes | replicates, log10 nM | mean log10 Kd (nM)
S26R/Q96I/L100A | 2.62 2.15 2.31 | 2.36
A57F/S62D/L102D | ND ND ND | ND
R60I/E61W/L102C | ND ND ND | ND
K24P/V29M/Y31P | 4.14 ND ND | 4.14
V29Y/N37H/E61I | 4.26 2.68 3.03 | 3.32
V39K/T59G/S103Q | ND ND ND | ND
S28E/R60K/P101F | 2.47 2.53 2.86 | 2.62
Y97V/R99N | ND ND ND | ND
Q27T/P101D | 1.49 1.67 1.66 | 1.61
V29A/A57W/L102I | 3.91 4.44 4.86 | 4.40
S58L/H98F/R99A | 3.30 2.24 3.19 | 2.91
K24E/S26P/Q27H | 2.60 2.45 2.74 | 2.60
S26W/K36D/H98F | 1.04 1.25 0.48 | 0.92
N35H/V39N | ND ND ND | ND
L30A/E32A/R60L | ND ND ND | ND
E32H/A57T/Q95G | ND ND ND | ND
S28F/R34I/N35R | 1.45 1.52 1.41 | 1.46
S28C/K36G/H98P | 1.98 2.51 2.31 | 2.27
A40W/T59F/Q96I | ND ND ND | ND
R34G/V39L/E61R | ND ND 4.28 | 4.28
Q27W/V29W/A40R | ND 4.38 3.92 | 4.15
N37T/W56F | 2.18 2.56 2.24 | 2.33

Continued, with the values leading:

replicates, log10 nM | mean log10 Kd (nM) | changes
ND ND 4.77 | 4.77 | V29Y/S38D/L102N
1.96 2.14 2.75 | 2.28 | L30H/H98Q/S103H
ND ND 4.03 | 4.03 | N35E/N37H/S58T
1.84 1.54 1.61 | 1.67 | E61T/S62G/R99Q
ND ND ND | ND | S38A/V39D/A40Q
ND ND ND | ND | V39Y/A57I/R99K
4.00 3.53 3.52 | 3.68 | V29D/A57E/L102I
ND ND ND | ND | R34H/R60L/P101F
0.40 0.56 0.65 | 0.53 | Q27I/N37Y/W56A
7.16 4.60 5.48 | 5.74 | S26C/T59R/R60N
4.03 3.11 ND | 3.57 | S58G/R99W/S103E
ND ND 3.27 | 3.27 | K24Q/R34Q/W56V
6.05 5.12 4.33 | 5.17 | S26D/V39D/Y97I
ND 3.23 ND | 3.23 | S26M/K36P/S58R
ND ND ND | ND | N35R/K36P/W56A
5.67 ND 4.32 | 5.00 | S28D/S33W/Y97W
0.77 1.02 1.10 | 0.96 | N37G/S62A/H98E
ND 3.57 ND | 3.57 | S26E/W56D/Q95P
0.50 0.80 0.67 | 0.66 | S28Q/V29M/H98G
ND ND ND | ND | A57R/S58N/S103Y
ND 2.92 ND | 2.92 | S28H/V39D/Q96F
ND ND ND | ND | L30G/N35E/A40D

6 of these entries, quoted again:

changes | replicates, log10 nM | mean log10 Kd (nM)
S38A/V39D/A40Q | ND ND ND | ND
E32H/A57T/Q95G | ND ND ND | ND
S28C/K36G/H98P | 1.98 2.51 2.31 | 2.27
K24P/V29M/Y31P | 4.14 ND ND | 4.14
V29Y/S38D/L102N | ND ND 4.77 | 4.77
R34H/R60L/P101F | ND ND ND | ND

The measurements come from Engelhart et al. 2022 (doi:10.1038/s41597-022-01779-4) through the FLAb antibody collection.